This note sets out measurements from US20100034823A1.

In this experiment the target is recombinant human TNF (human) (UniProt P01375). The experiment can be described thus: cell-based or functional assay.

“monoclonal antibody D2E7 (redissolved from crystal suspension prepared as in Example 36)”: the relative biological activity (L-929 cytotoxicity neutralisation; mean IC50 of reference standard / IC50 of sample x 100%) is 111%.
